For orientation: Kd means the free concentration of one partner at which half of the binding sites on the other are occupied at equilibrium, for simple one-to-one binding. High values mean lower affinity, low ones higher affinity. Broadly, the IC50 is the concentration that gives 50% inhibition.

Where two headings read alike, the source gives them in different places.

The target in assay [1] is GDP-bound KRAS wild-type protein (Homo sapiens, UniProt P01116). Briefly: Binding to KRAS by surface plasmon resonance (SPR), dissociation constant KD. How it is done: (§1) Surface plasmon resonance was used to analyze the binding affinity of compounds for KRAS, NRAS, and HRAS. The apparatus used was Biacore 8K, 8K+, or T200 (GE Healthcare), and the running buffer used was HBS (10 mM HEPES-NaOH, 150 mM NaCl, pH 7.4) containing 1 mM DTT, 10 mM MgCl2, 0.01% Tween 20, 10 µM GDP, and 4% DMSO.
(§2) Biotinylated Avi-tag fusion KRAS, NRAS, and HRAS proteins were expressed in E. coli BL21 (DE3) strains, and after cells were homogenized, they were purified using Streptavidin Mutein Matrix and Superdex 75. After purification, GDP-loaded KRAS, NRAS, and HRAS proteins were immobilized on the surface of Sensor Chip CAP (Cytiva) coated with Biotin CAPture Reagent in an immobilization amount of about 100 to 300 RU. Binding of each compound was evaluated by the Single Cycle Kinetics method, and a running buffer or a compound solution was added to the RAS protein non-immobilized surface and the immobilized surface to obtain a binding response. The flow rate was set to 100 µL/min, and in the compound-adding cycle, compound solutions having different concentrations were intermittently added for 75 seconds each, starting from a low concentration. […] In the blank cycle, a running buffer was intermittently added and not the compound solution. The Biotin CAPture Reagent and RAS proteins were immobilized for each cycle, and at the end of each cycle, the sensor chip was regenerated by the regeneration solution appended to the Biotin CAPture Kit (Cytiva). Measurement was carried out at 30°C.
(§3) The resulting sensorgram was subjected to curve fitting based on a 1:1 binding model on Biacore Insight Evaluation Software or T200 Evaluation Software, and thereby the dissociation constant KD of each compound with respect to KRAS, NRAS, and HRAS was determined. […] Blank indicates a compound from which the KD value with respect to NRAS or HRAS was not obtained.
Background: In SPR one partner is held on a chip, and binding of the other changes the refractive index at the surface.

The test system of assay [2] is human lung cancer strain NCI-H441. Briefly: NCI-H441 cell proliferation inhibitory activity (CellTiter-Glo, 4 days). The assay is classed as cell-based. To be noted: NCI-H441 cells, read-out: NCl-H441 IC50. Here is the method:
A test compound was dispensed into a U-bottom 384-well plate as 40 nL serially diluted dimethyl sulfoxide solutions using a liquid handler Echo (LABCYTE). As for human lung cancer strain NCI-H441 (ATCC), a cell suspension was prepared so as to have 250 cells/40 µL in an RPMI-1640 medium (Sigma) supplemented with 10% fetal bovine serum (Sigma), a 2.5 g/L D-(+)-glucose solution, 10 mmol/L HEPES, and 1 mmol/L sodium pyruvate. This cell suspension was dispensed in an amount of 40 µL per well into a plate containing the test compound, and cultured at 37°C in a 5% carbon dioxide gas incubator. Four days later, 20 µL of CellTiter-Glo (registered trademark) (Promega) was added to each well and […] was measured. […]

Assay [3] has as its target GDP-bound NRAS wild-type protein (Homo sapiens, UniProt P01111). Description: Binding to NRAS by surface plasmon resonance (SPR), KD and KD ratio to KRAS. Here is the method: as §1, §2, §3
The target of a further assay is HRAS wild-type protein (Homo sapiens, UniProt P01112). Briefly: Binding to HRAS by surface plasmon resonance (SPR), KD and KD ratio to KRAS. Here is the method: as §1, §2, §3
The test system of assay [4] is human lung cancer strain NCI-H441. It counts as cell-based. Particulars: NCI-H441 cells, CellTiter-Glo, read-out: NCl-H441 IC50. How it is done:
A test compound was dispensed into a U-bottom 384-well plate as 40 nL serially diluted dimethyl sulfoxide solutions using a liquid handler Echo (LABCYTE). […] This cell suspension was dispensed in an amount of 40 µL per well into a plate containing the test compound, and cultured at 37°C in a 5% carbon dioxide gas incubator. Four days later, 20 µL of CellTiter-Glo (registered trademark) (Promega) was added to each well and […] was measured. […]

Where [5] appears, read: Single Cycle Kinetics, 1:1 binding model.
Where [6] appears, read: ratio of KD for GDP-bound NRAS wild-type protein to KD for KRAS.
Where [7] appears, read: ratio of KD for HRAS wild-type protein to KD for KRAS.

With `CCO[C@@H]1C[C@H]2C(=O)NC3(CCC3)C(=O)N(C)[C@@H](C3CCCC3)C(=O)N(C)[C@H](C(=O)N3CCOCC3)CC(=O)N(C)[C@@H](CC)C(=O)N[C@@H]([C@@H](C)CC)C(=O)N(C)CC(=O)N(C)[C@H]3C/C=C\CCN(C3=O)[C@@H](Cc3ccc(C(F)(F)F)cc3)C(=O)N(C)CC(=O)N[C@@H](CCc3ccc(C(F)(F)F)c(Cl)c3)C(=O)N2C1` [PP1281], the dissociation constant Kd in assay [1] (setting [5]) was determined as 0.14 nM. Regarding `CC[C@H](C)[C@@H]1NC(=O)[C@H](COC)N(C)C(=O)C[C@@H](C(=O)N(C)CC)N(C)C(=O)[C@H](C2CCCC2)N(C)C(=O)C2(CC(C)(C)C2)NC(=O)[C@@H]2C[C@H](C)CN2C(=O)[C@H](CCc2ccc(C(F)(F)F)c(OC)c2)NC(=O)CN(C)C(=O)[C@H](Cc2ccc(C)cc2)N2CC/C=C\C[C@@H](C2=O)N(C)C(=O)CN(C)C1=O` [PP2504], the IC50 in assay [2] was 12.9 nM. In assay [1] (setting [5]), `CCO[C@@H]1C[C@H]2C(=O)NC3(COC3)C(=O)N(C)[C@@H](C3CCCC3)C(=O)N(C)[C@H](C(=O)N(C)C)CC(=O)N(C)[C@@H](CC)C(=O)N[C@@H]([C@@H](C)CC)C(=O)N(C)CC(=O)N(C)[C@H]3C/C=C\CCN(C3=O)[C@@H](Cc3ccc(C(F)(F)F)cc3)C(=O)N(C)CC(=O)N[C@@H](CCc3cc(F)c(C(F)(F)F)c(F)c3)C(=O)N2C1` [PP1278] returned a Kd of 0.14 nM. That is a sub-nanomolar value. Still for that read-out and setting: the result for `CCCC[C@H]1C(=O)N[C@@H]([C@@H](C)CC)C(=O)N(C)CC(=O)N(C)[C@H]2C/C=C\CCN(C2=O)[C@@H](Cc2ccc(C(F)(F)F)cc2)C(=O)N(C)CC(=O)N[C@@H](CCc2cc(F)c(C(F)(F)F)c(F)c2)C(=O)N2C[C@H](OCC)C[C@H]2C(=O)NC2(CCC2)C(=O)N(C)[C@@H](C2CCCC2)C(=O)N(C)[C@H](C(=O)N2CCCC2)CC(=O)N1C` [PP1396] reads 0.14 nM. As to `CCO[C@@H]1C[C@H]2C(=O)NC3(CCC3)C(=O)N(C)[C@@H](C3CCCC3)C(=O)N(C)[C@H](C(=O)N(CC)CC)CC(=O)N(C)[C@@H](CC3CC3)C(=O)N[C@@H]([C@@H](C)CC)C(=O)N(C)CC(=O)N(C)[C@H]3C/C=C\CCN(C3=O)[C@@H](Cc3ccc(C(F)(F)F)cc3)C(=O)N(C)CC(=O)N[C@@H](CCc3cc(F)c(C(F)(F)F)c(F)c3)C(=O)N2C1` [PP1307], the “NRAS /KRAS” value in assay [3] (ratio of KD with respect to GDP-bound NRAS wild-type protein to KD with respect to KRAS) was “A (a compound having 10 or more and less than 20 is denoted as A)”. In addition, on HRAS wild-type protein (ratio of KD with respect to HRAS wild-type protein to KD with respect to KRAS), the “HRAS /KRAS” value is “A (a compound having 10 or more and less than 20 is denoted as A)”. In the case of `CCO[C@@H]1C[C@H]2C(=O)NC3(CCC3)C(=O)N(C)[C@@H](C3CCCC3)C(=O)N(C)[C@H](C(=O)N(C)C)CC(=O)N(C)[C@@H](CC)C(=O)N[C@@H]([C@@H](C)CC)C(=O)N(C)CC(=O)N(C)[C@H]3C/C=C\CCN(C3=O)[C@@H](CC3CCCCC3)C(=O)N(C)CC(=O)N[C@@H](CCc3cc(F)c(C(F)(F)F)c(F)c3)C(=O)N2C1` [PP1466], the Kd in assay [1] (setting [5]) was found to be 0.14 nM. The compound `CCC[C@H]1C(=O)N[C@@H]([C@@H](C)CC)C(=O)N(C)CC(=O)N(C)[C@H]2C/C=C\CCN(C2=O)[C@@H](Cc2ccc(C(F)(F)F)cc2)C(=O)N(C)CC(=O)N[C@@H](CCc2cc(F)c(C(F)(F)F)c(F)c2)C(=O)N2C[C@H](OCC)C[C@H]2C(=O)NC2(CCC2)C(=O)N(C)[C@@H](C2CCCC2)C(=O)N(C)[C@H](C(=O)N2CCCC2)CC(=O)N1C` [PP1299] came in with a Kd in assay [1] (setting [5]) of 0.14 nM. As for `CCO[C@@H]1C[C@H]2C(=O)NC3(CCC3)C(=O)N(C)[C@@H](C3CCCC3)C(=O)N(C)[C@H](C(=O)N3CCCC3)CC(=O)N(C)[C@@H](CC3CCC3)C(=O)N[C@@H]([C@@H](C)CC)C(=O)N(C)CC(=O)N(C)[C@H]3C/C=C\CCN(C3=O)[C@@H](Cc3ccc(C(F)(F)F)cc3)C(=O)N(C)CC(=O)N[C@@H](CCc3cc(F)c(C(F)(F)F)c(F)c3)C(=O)N2C1` [PP1423], the affinity in assay [1] (setting [5]), expressed as Kd, was 0.14 nM.

The compound `CCO[C@@H]1C[C@H]2C(=O)NC3(CCC3)C(=O)N(C)[C@@H](C3CCCC3)C(=O)N(C)[C@H](C(=O)N(C)C)CC(=O)N(C)[C@@H](CC3CCCC3)C(=O)N[C@@H]([C@@H](C)CC)C(=O)N(C)CC(=O)N(C)[C@H]3C/C=C\CCN(C3=O)[C@@H](CC3CCCCC3)C(=O)N(C)CC(=O)N[C@@H](CCc3cc(F)c(C(F)(F)F)c(F)c3)C(=O)N2C1` [PP1472] yielded a dissociation constant Kd in assay [1] (setting [5]) of 0.14 nM. The same measure, in the same setting: next, `CC[C@H](C)[C@@H]1NC(=O)[C@H](CC)N(C)C(=O)C[C@@H](C(=O)N(C)C)N(C)C(=O)[C@H](C2CCCC2)N(C)C(=O)C2(CCC2)NC(=O)[C@@H]2C[C@@H](C(F)(F)F)CN2C(=O)[C@H](CCc2cc(F)c(C(F)(F)F)c(F)c2)NC(=O)CN(C)C(=O)[C@H](CC2CCC(F)(F)CC2)N2CC/C=C\C[C@@H](C2=O)N(C)C(=O)CN(C)C1=O` [PP1451]: 0.14 nM. `CCO[C@@H]1C[C@H]2C(=O)NC3(CCC3)C(=O)N(C)[C@@H](C3CCCC3)C(=O)N(C)[C@H](C(=O)N(C)C)CC(=O)N(C)[C@@H](CC(C)C)C(=O)N[C@@H]([C@@H](C)CC)C(=O)N(C)CC(=O)N(C)[C@H]3CC(C)=C(C)CN(C3=O)[C@@H](Cc3ccc(C(F)(F)F)cc3)C(=O)N(C)CC(=O)N[C@@H](CCc3cc(F)c(C(F)(F)F)c(F)c3)C(=O)N2C1` [PP1046] registered a dissociation constant (Kd) in assay [1] of 0.38 nM. Besides, in assay [3] (setting [6]), the “NRAS /KRAS” value is “C (A compound having a KD ratio of 0.1 or more and less than 3 is denoted as C)”. The “HRAS /KRAS” value on HRAS wild-type protein (setting [7]) is “C (A compound having a KD ratio of 0.1 or more and less than 3 is denoted as C)”. In assay [4] (four days), the 50% inhibitory concentration (IC50) is 109 nM. `CCC[C@H]1C(=O)N[C@@H]([C@@H](C)CC)C(=O)N(C)CC(=O)N(C)[C@H]2C/C=C\CCN(C2=O)[C@@H](CC2CCC(F)(F)CC2)C(=O)N(C)CC(=O)N[C@@H](CCc2cc(F)c(C(F)(F)F)c(F)c2)C(=O)N2C[C@H](OCC)C[C@H]2C(=O)NC2(CCC2)C(=O)N(C)[C@@H](C2CCCC2)C(=O)N(C)[C@H](C(=O)N(C)C)CC(=O)N1C` [PP1450]: in assay [1] (setting [5]), the Kd was 0.14 nM.

Turning to `CCC[C@H]1C(=O)N[C@@H]([C@@H](C)CC)C(=O)N(C)CC(=O)N(C)[C@H]2C/C=C\CCN(C2=O)[C@@H](Cc2ccc(C)cc2)C(=O)N(C)CC(=O)N[C@@H](CCc2cc(F)c(C(F)(F)F)c(F)c2)C(=O)N2CC3(CC3)C[C@H]2C(=O)NC2(CC(C)(C)C2)C(=O)N(C)[C@@H](CC(C)C)C(=O)N(C)[C@H](C(=O)N(C)C)CC(=O)N1C` [PP3004], the affinity in assay [1], expressed as Kd, was 0.41 nM. In addition, the “NRAS /KRAS” value in assay [3] (setting [6]) is “A (a compound having 10 or more and less than 20 is denoted as A)”. Further, at HRAS wild-type protein (setting [7]), the “HRAS /KRAS” value was “A (a compound having 10 or more and less than 20 is denoted as A)”. In addition, the concentration for half-maximal inhibition (IC50) in assay [4] (4 days) was 19.2 nM.

Values taken from patent publication EP4603105A1, “PHARMACEUTICAL COMPOSITION CONTAINING CYCLIC COMPOUND HAVING SELECTIVE KRAS INHIBITORY EFFECT AGAINST HRAS AND NRAS” (CHUGAI SEIYAKU KABUSHIKI KAISHA, priority 2022, dated 2024).
